Experiments:
Conditions in all cases: scale: % decreased activity compared to WT-RBPR2
[1] = biological target: V5-tagged RBPR2 Tyr295Pro mutant (mouse) (UniProt Q9DBN1)
[2] = biological target: V5-tagged RBPR2 Ser294Ala mutant (mouse) (UniProt Q9DBN1)
[3] = biological target: V5-tagged RBPR2 Leu296Ser mutant (mouse) (UniProt Q9DBN1)

Measured: uptake of extracellular [3H]ROL-RBP4 at 60 min by stable NIH3T3/LRAT cells, liquid scintillation counting

purified T7 tagged human RBP4 (from UniProt P02753 19-194) (ligand)
< 81: all assays above
